One molecule from patent US10364256B2 (GlaxoSmithKline Intellectual Property Development Limited, priority 2015, dated 2019) can be followed below.

The chains behind the UniProt entries cited, without tags or fusion partners. Residues count along the entry.
UniProt Q14145, whole entry: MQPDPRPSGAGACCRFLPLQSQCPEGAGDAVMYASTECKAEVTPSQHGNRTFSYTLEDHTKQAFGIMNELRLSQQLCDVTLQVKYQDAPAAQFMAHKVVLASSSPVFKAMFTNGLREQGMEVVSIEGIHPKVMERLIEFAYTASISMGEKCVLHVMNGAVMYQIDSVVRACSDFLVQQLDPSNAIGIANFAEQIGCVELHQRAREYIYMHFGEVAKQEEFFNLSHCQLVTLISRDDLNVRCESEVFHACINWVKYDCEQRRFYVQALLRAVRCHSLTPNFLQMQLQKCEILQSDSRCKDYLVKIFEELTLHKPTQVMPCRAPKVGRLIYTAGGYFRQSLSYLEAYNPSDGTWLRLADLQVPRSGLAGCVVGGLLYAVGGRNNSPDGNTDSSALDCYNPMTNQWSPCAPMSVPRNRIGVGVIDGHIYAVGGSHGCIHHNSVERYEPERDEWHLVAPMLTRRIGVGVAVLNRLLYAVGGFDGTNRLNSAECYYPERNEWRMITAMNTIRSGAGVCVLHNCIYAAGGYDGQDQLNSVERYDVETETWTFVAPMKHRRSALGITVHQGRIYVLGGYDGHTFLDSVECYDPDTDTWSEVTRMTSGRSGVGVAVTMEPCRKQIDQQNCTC
UniProt Q14145, 321-609 limits assumed: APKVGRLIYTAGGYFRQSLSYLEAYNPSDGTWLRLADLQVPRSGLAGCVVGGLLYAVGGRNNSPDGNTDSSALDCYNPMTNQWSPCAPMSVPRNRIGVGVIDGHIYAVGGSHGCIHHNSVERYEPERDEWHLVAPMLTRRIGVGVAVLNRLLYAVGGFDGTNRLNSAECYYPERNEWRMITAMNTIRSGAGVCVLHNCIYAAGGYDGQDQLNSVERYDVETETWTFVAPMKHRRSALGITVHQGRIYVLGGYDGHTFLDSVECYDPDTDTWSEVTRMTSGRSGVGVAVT

Experiment [1] deals with NQO1 specific enzyme activity in BEAS-2B cells (marker for NRF2 activation). Description: BEAS-2B NQO1 MTT Assay. The note with it: read-out: EC50 (NQO1 specific enzyme activity induction), compound incubated 48 hours. It counts as cell-based. An excerpt: BEAS-2B NQO1 MTT Assay NAD(P)H:quinone oxidoreductase 1 (NQO1), also called DT diaphorase, is a homodimeric FAD-containing enzyme that catalyzes obligatory NAD(P)H-dependent two-electron reductions of quinones and protects cells against the toxic and neoplastic effects of free radicals and reactive oxygen species arising from one-electron reductions. The transcription of NQO1 is finely regulated by NRF2, and thus NQO1 activity is a good marker for NRF2 activation. On day one, frozen BEAS-2B cells (ATCC) are thawed in a water bath, counted, and re-suspended at a concentration of 250,000 cells/mL. Fifty microliters of cells are plated in 384 well black clear-bottomed plates. Plates are incubated at 37° C., 5% CO2 overnight. On day two, plates are centrifuged and 50 nL of compound or controls are added to the cells. Plates are then incubated at 37° C., 5% CO2 for 48 hours. […] Fifty microliters of MTT cocktail is added to each well, plate is centrifuged, and analyzed on an Envision plate reader (Perkin Elmer) using Absorbance 570 nm label for 30 minutes. Product formation is measured kinetically and the pEC50 of NQO1 specific activity induction is calculated by plotting the change in absorbance (Delta OD/min) versus the log of compound concentration followed by 3-parameter fitting. pEC50 is the negative log of the EC50.

For experiment [2], the target named is full length Keap1 protein / full length NRF2 protein (Homo sapiens, UniProt Q14145). Description: NRF2-Keap1 TR-FRET Assay. The note with it: read-out: IC50 (Nrf2/Keap1 TR-FRET assay); 25 nM Keap1-FlagHis and 50 nM biotin-NRF2 added. An excerpt: In the NRF2-Keap1 TR-FRET (time-resolved fluorescence resonance energy transfer) assay, full length NRF2 protein and full length Keap1 protein (Keap1 exists a dimer) are used. The assay detects the ability of compound to displace the binding of FlagHis-tagged Keap1 with biotinylated, Avi-tagged NRF2 protein. Biotin-NRF2 binds to streptavidin-europium (a component of the detection mix) and Keap1-FlagHis is recognized by anti-Flag APC (allophycocyanin) antibody (also a component of the detection mix). If binding occurs between the two proteins, there will be an energy transfer from the Eu+3 (donor) at 615 nm to the APC (acceptor) at 665 nm. […]
One hundred nanoliters of 100× compound dose response curves (serial 3-fold dilutions) in DMSO are stamped using an Echo liquid handling system (Labcyte) into 384-well, low volume, black assay plates (Greiner, #784076), with DMSO in columns 6 and 18. […] Plates are spun at 500 rpm for 1 minute, incubated for 1 hour at RT, and read on an Envision plate reader using a 320 nm excitation filter and 615 nm and 665 nm emission filters. Compound response (% inhibition) and potency (pIC50) are calculated based on the ratio of the two emissions (665 nm/615 nm) and then the transformed data is normalized against controls in the assay (control 1=1% DMSO in the presence of NRF2 and Keap1 protein and control 2=1% DMSO in the absence of protein). […]
Background: TR-FRET usually uses a lanthanide donor and a delayed reading to cut background.

Experiment [3] addresses Keap1 Kelch domain (321-609) / TAMRA-labeled 16mer NRF2 peptide (ETGE motif) (Homo sapiens, UniProt Q14145). Description: NRF2-Keap1 FP Assay (Keap1 Kelch fluorescence polarization). The class given is binding. The note with it: read-out: IC50 (Keap1/Nrf2 FP assay); 20 nM Keap1 (321-609), 8 nM Tamra labeled peptide. The text has this: One model for the NRF2-Keap1 interaction is through two binding sites in the Neh2 domain on NRF2. The two sites are referred to as the DLG binding motif (latch domain, uM affinity) and the ETGE binding motif (hinge domain, nM affinity). The Keap1 protein consists of an N-terminal region (NTR), a broad complex, tramtrack, and brick a′ brac domain (BTB), an intervening region (IVR), a double glycine repeat domain (DGR or Kelch), and a C-terminal region. The DLG and ETGE motifs of NRF2's Neh2 domain bind to the Kelch domain of Keap1 at different affinities. In the Keap1 Kelch fluorescence polarization (FP) assay, a TAMRA-labeled 16mer peptide (AFFAQLQLDEETGEFL) containing the ETGE motif of NRF2 and the Kelch domain (321-609) of Keap1 is used. […]
100 nl of 100× compound dose response curves (serial 3-fold dilutions) in DMSO are stamped using an Echo liquid handling system (Labcyte) into 384-well low volume black assay plates (Greiner, #784076), with DMSO in columns 6 and 18. […] The plates are spun at 500 rpm for 1 min, incubated for 1 hr at room temperature, and read on an Analyst GT (Molecular Devices) equipped with excitation (530/25 nm) and emission (580/10 nm) filters designed for Tamra probes. […] Fluorescence measurements, represented as mP, are used in the transformation of the data. […]
In general terms: Fluorescence polarisation rises when a labelled molecule tumbles more slowly, as on binding a larger partner.

Each structure is given as a SMILES string.

As a reminder, the EC50 is the concentration giving half of the maximal effect.

In the case of `CCCC1CCCCN1C(=O)c1cccc(-c2cccc(-n3ncc(C(=O)O)c3C(F)(F)F)c2)c1` (stereo not drawn), the EC50 in experiment [1] was 1000 to 10000 nM. The IC50 in experiment [2] fell in the range of 100 to 1000 nM; in experiment [3], 10 to 100 nM.
